# Measured values: patent US20230374072A1 (priority 2020, published 2023)
# Amino acid sequences for entries named in this document (tags omitted). A change or cut given only in a name is not applied to a line headed by its entry.
# UniProt P15692: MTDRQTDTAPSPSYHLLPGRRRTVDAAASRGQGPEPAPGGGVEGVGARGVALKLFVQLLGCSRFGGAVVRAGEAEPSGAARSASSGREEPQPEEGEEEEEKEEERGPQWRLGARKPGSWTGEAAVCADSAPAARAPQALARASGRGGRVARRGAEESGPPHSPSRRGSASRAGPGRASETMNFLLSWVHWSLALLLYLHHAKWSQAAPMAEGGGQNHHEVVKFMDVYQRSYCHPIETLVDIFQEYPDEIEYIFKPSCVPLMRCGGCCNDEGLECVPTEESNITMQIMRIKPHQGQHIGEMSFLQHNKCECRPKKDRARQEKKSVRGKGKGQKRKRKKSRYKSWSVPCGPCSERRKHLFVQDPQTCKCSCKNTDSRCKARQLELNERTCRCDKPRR
# Assays:
# VEGF165 = VEGF165 (Homo sapiens, UniProt P15692); test: recognition ELISA assay, interaction with VEGF165; conditions: compared with parental vNAR, FIG. 2
# VEGF = VEGF (Homo sapiens, UniProt P15692); test: in vitro neutralization assay, HUVEC angiogenesis with VEGF; assay type: cell-based; conditions: HUVEC cells plus VEGF; FIG. 3 and 4
sequence,measurement,setting,value
GDCPPWCGARCKNLLPRYLVNGIAAMGYSSSC,recognition of the antigen (interaction with VEGF165),VEGF165,has the ability to recognize the antigen
same,inhibition of angiogenesis (VEGF neutralization),VEGF,inhibits VEGF
